Experiment: Selectivity ratio of IC50 for human A2780 cells to IC50 for chloroquine/mefloquine-resistant Plasmodium falciparum Dd2

Structure (SMILES): CCCCCCCc1cc(=O)c2ccccc2[nH]1
- Ratio IC50: 26.6
